Measured values reported in patent US6562587 (ASTRA PHARMA, dated 2003).

Target: delta opioid receptor naturally expressed by NG 108-15 cells (UniProt P32300)
Experiment: Table 1, NG 108-15 column (method not described)

## [D-Ala^2, D-Leu^5]-enkephalin (peptide)
  PKi: 8.7
